Reference: patent US11701354B2, “Pyrazolo[3,4-b]pyrazine derivatives as SHP2 phosphatase inhibitors” (Relay Therapeutics, Inc., priority 2017, dated 2023)

Protein sequences, listed by entry. Tags and fused reporters are not part of them.
UniProt Q06124, whole entry: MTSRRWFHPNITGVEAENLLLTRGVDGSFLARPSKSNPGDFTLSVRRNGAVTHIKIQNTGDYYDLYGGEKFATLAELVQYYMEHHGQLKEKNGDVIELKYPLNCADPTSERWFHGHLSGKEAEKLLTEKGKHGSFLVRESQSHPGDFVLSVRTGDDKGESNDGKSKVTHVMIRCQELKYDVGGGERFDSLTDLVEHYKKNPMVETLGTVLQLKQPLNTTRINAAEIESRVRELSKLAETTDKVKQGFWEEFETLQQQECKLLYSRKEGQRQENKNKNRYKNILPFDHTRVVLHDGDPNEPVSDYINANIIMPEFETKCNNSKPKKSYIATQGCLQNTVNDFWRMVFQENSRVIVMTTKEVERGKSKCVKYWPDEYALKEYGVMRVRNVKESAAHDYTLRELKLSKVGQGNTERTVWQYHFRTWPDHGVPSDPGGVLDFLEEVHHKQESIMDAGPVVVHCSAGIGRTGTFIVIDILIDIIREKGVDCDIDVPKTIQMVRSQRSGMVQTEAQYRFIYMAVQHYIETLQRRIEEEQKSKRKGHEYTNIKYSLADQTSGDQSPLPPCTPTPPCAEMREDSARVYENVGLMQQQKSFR

Target: SHP2 (Homo sapiens (Human), UniProt Q06124)
Experiment: SHP2 Allosteric Inhibition Assay (DiFMUP prompt fluorescence)
Details: read-out: SHP2 IC50; 0.25 nM SHP2 activated with 0.5 μM peptide IRS1_pY1172(dPEG8)pY1222; substrate DiFMUP 100 μM
Text: SHP2 Allosteric Inhibition Assay.
SHP2 is allosterically activated through binding of bis-tyrosyl-phorphorylated peptides to its Src Homology 2 (SH2) domains. The latter activation step leads to the release of the auto-inhibitory interface of SHP2, which in turn renders the SHP2 protein tyrosine phosphatase (PTP) active and available for substrate recognition and reaction catalysis. The catalytic activity of SHP2 was monitored using the surrogate substrate DiFMUP in a prompt fluorescence assay format.
More specifically, the phosphatase reactions were performed at room temperature in 96-well black polystyrene plate, flat bottom, low flange, non-binding surface (Corning, Cat #3575) using a final reaction volume of 50 μl and the following assay buffer conditions: 60 mM HEPES, pH 7.2, 75 mM NaCl, 75 mM KCl, 1 mM EDTA 0.005% Brij-35, 5 mM DTT.
The inhibition of SHP2 by compounds of the disclosure (concentrations varying from 0.003-100 μM) was monitored using an assay in which 0.25 nM of SHP2 was incubated with of 0.5 μM of peptide IRSl_pY1172(dPEG8)pY1222 (sequence: H2N-LN(pY)IDLDLV(dPEG8)LST(pY)ASINFQK-amide). […]

- IC50: < 1000 nM
SMILES: CN(c1cnc2c(-c3cccc4ncccc34)n[nH]c2n1)[C@@H]1CCCC[C@@H]1N
